# According to PubChem BioAssay AID811 (The Scripps Research Institute Molecular Screening Center, 2007):
# Protein sequences, listed by entry. Tags and fused reporters are not part of them.
# UniProt O00206, whole entry, looked up: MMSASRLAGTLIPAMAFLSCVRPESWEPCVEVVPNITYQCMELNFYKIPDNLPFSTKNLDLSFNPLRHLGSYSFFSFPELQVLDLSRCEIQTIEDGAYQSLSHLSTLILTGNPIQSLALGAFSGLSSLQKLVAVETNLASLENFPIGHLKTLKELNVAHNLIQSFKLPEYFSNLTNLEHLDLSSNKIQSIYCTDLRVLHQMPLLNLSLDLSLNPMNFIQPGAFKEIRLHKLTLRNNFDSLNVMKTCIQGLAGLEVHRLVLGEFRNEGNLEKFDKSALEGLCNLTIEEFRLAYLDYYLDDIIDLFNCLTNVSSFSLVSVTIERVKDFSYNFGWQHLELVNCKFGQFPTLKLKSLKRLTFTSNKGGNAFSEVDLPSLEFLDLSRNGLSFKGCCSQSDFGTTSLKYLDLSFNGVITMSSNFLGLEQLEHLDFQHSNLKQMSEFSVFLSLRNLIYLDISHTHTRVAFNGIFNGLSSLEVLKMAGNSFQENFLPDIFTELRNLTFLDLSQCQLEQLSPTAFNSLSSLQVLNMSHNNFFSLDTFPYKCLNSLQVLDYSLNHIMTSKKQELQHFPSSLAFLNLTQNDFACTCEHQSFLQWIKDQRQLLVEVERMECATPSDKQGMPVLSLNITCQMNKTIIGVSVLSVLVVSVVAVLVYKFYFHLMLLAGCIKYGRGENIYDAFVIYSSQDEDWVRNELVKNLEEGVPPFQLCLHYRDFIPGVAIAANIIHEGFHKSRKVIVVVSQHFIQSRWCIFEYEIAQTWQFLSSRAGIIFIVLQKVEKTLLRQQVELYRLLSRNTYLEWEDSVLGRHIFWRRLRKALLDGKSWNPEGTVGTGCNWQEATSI
# Only a part is listed here, and it is no random draw. Calls of active or inactive are those of the source. No stated cut-off is given here; in the data, active means inhibition above about 45%; inactive means the rest.
# Target: Toll-like receptor 4 (Homo sapiens) (UniProt O00206)
# Test: blocks binding of human TLR4 to MyD88 (AID 811)
# Conditions: Cell-based TLR4-MyD88 binding inhibition assay; at 10 µM; active compounds read high
row,Structure (SMILES),inhibition
1,CCOC(=O)/C(=N/Nc1ccc([N+](=O)[O-])cc1)N1CC1,inactive: -11.9%
2,O=C(OC1CN2CCC1CC2)c1cccc([N+](=O)[O-])c1 (configuration not stated),inactive: -5.24%
